According to patent publication US20180201654:

Tests used:
[1] = molecular target: T1, vIRF4^202-216 peptide (vif1); assay: competitive ITC, TRAF domain pre-titrated with competitor p53^350-364
T1 chain: SVWIPVNEGASTSGM

[2] = molecular target: T1, vIRF4^202-216 peptide (vif1); assay: competitive ITC, TRAF domain pre-titrated with competitor p53^355-369
[3] = molecular target: T1, vIRF4^202-216 peptide (vif1); assay: competitive ITC, TRAF domain pre-titrated with competitor MDM2^137-152

B1: HAUSP TRAF domain (HAUSP^62-205) (protein)
chain: DTSWRSEATFQFTVERFSRLSESVLSPPCFVRNLPWKIMVMPRFYPDRPHQKSVGFFLQCNAESDSTSWSCHAQAVLKIINYRDDEKSFSRRISHLFFHKENDWGFSNFMAWSEVTDPEKGFIDDDKVTFEVFVQADAPHGVAW
[1]
  Kobs: 4.42e+07 M⁻¹
[2]
  Kobs: 3.58e+07 M⁻¹
[3]
  Kobs: 1.09e+07 M⁻¹
